## Curated experimental data: logP (octanol/water) values

Source: data files of OPERA 2.9 (Mansouri et al.), github.com/kmansouri/OPERA.

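These are experimental values that the OPERA curators gathered from public databases to train and test their QSAR models. A listed value is a point estimate from one report or more. How each value was measured is not recorded, so precision varies. Where a salt, mixture or single isomer is drawn, the source does not say that exactly this form was tested. Some entries may be limits or estimates that an upstream database listed as plain numbers.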

The octanol-water partition coefficient is given as log10; larger values mean a more lipophilic compound.
Cells with "n/a" have no entry in this list.
"via" names the databases from which the curators took the value.

SMILES,name,logP,via
CC(C)CC(=O)CC(C)C,Diisobutyl ketone,3.71,eChemPortal
N[C@@H](Cc1c[nH]c2ccc(O)cc12)C(=O)O,L-5-Hydroxytryptophan,-2.051,PubChem
CCCCCC[C@@H](O)C/C=C\CCCCCCCC(=O)OC,Methyl ricinoleate,5.1,eChemPortal
O=C1C=CC(=O)N1c1cccc(N2C(=O)C=CC2=O)c1,"N,N'-1,3-Phenylenedimaleimide",0.67,eChemPortal
C=CC(=O)OCC1COC(C)(CC)O1 (stereo not given),"(2-Ethyl-2-methyl-1,3-dioxolan-4-yl)methyl prop-2-enoate",1.92,eChemPortal
[Na+].[Na+].[O-]c1c(-c2[nH]c3ccccc3c2[O-])[nH]c2ccccc12,"[2,2'-Bi-1H-indole]-3,3'-diol, disodium salt",1.4,eChemPortal
COC(=O)[C@@H](C)O,(+)-Methyl lactate,-0.2,eChemPortal
CN(C)CCN(C)CCN(C)C,"1,1,4,7,7-Pentamethyldiethylenetriamine",0.005,eChemPortal
CC1C(=O)CCC1=O,"2-Methylcyclopentane-1,3-dione",-0.8,eChemPortal
O=C1c2ccccc2C(=O)c2c(O)ccc(O)c21,n/a,4.16,eChemPortal
Cc1cc(S(=O)(=O)[O-])c(/N=N/c2c(O)c(C(=O)[O-])cc3ccccc23)cc1Cl.[Ba+2],n/a,0.11,eChemPortal
CC1=NN(c2ccccc2)C(=O)C1,1-Phenyl-3-methyl-5-pyrazolone,1.23,eChemPortal
CC(C)(C)c1cc(CCC(=O)OCC(COC(=O)CCc2cc(C(C)(C)C)c(O)c(C(C)(C)C)c2)(COC(=O)CCc2cc(C(C)(C)C)c(O)c(C(C)(C)C)c2)COC(=O)CCc2cc(C(C)(C)C)c(O)c(C(C)(C)C)c2)cc(C(C)(C)C)c1O,Irganox 1010,1.36,OCHEM
C/C=C/C(=O)C1=C(C)C=CCC1(C)C,n/a,3.4,eChemPortal
Nc1ccc(N=Nc2ccccc2)c(N)c1,"2,4-Diaminoazobenzene",2.422,eChemPortal
Cc1ccc(-c2ccccc2C#N)cc1,4'-Methylbiphenyl-2-carbonitrile,3.5,eChemPortal
CCCCC(CC)COC(C)=O (stereo not given),2-Ethylhexyl acetate,4.16,eChemPortal
COCc1ccc(O)c(OC)c1,2-Methoxy-4-(methoxymethyl)phenol,0.7,eChemPortal
C=CC(=O)OCCOCCOCC,2-(2-Ethoxyethoxy)ethyl prop-2-enoate,1.105,eChemPortal
COc1ccc2cccc(CC#N)c2c1,7-Methoxy-1-naphthylacetonitrile,2.79,eChemPortal
NS(=O)(=O)c1cc(Cl)c(Cl)c(S(N)(=O)=O)c1,Dichlorphenamide,0.2,PubChem
N=C(N)NCC1COC2(CCCCC2)O1 (stereo not given),Guanadrel,0.6,PubChem
COc1cc(N)c(Cl)cc1C(=O)N[C@@H]1CCN(CCCOc2ccc(F)cc2)C[C@@H]1OC,Cisapride,3.3,PubChem
CC=C(C(=O)O)c1ccc([N+](=O)[O-])cc1,alpha-Ethylidene-4-nitrobenzeneacetic acid,2,eChemPortal
CCCCOCCOS(=O)(=O)[O-].[Na+],Sodium 2-butoxyethyl sulfate,-2.7,eChemPortal
CCN(CC)c1ccc(C(=C2C=CC(=[N+](CC)Cc3cccc(S(=O)(=O)O)c3)C=C2C)c2ccc(N(CC)Cc3cccc(S(=O)(=O)[O-])c3)cc2C)cc1.[Na+],Acid blue 104,-2.49,eChemPortal
Oc1ccc(N=Nc2ccccc2)cc1,4-Hydroxyazobenzene,3.57,OCHEM
CCOC(=O)c1ccc(C)cc1O,"Benzoic acid, 2-hydroxy-4-methyl-, ethyl ester",3.6,OCHEM
CCCCc1ccc(-c2ccc(OCC)c(F)c2F)cc1,n/a,6.9,eChemPortal
CC(=O)OCCN(CCOC(C)=O)c1ccc(N=Nc2ccc([N+](=O)[O-])cc2C#N)cc1,Disperse Red 82,3.7,eChemPortal
CC1=NS(=O)(=O)c2ccccc21,"1,2-Benzisothiazole, 3-methyl-, 1,1-dioxide",1.17,eChemPortal
Cn1nc(C(F)F)c(C(=O)F)c1F,n/a,2,eChemPortal
O=C([O-])c1cc2ccccc2c(/N=N/c2ccc3ccccc3c2S(=O)(=O)[O-])c1[O-].[H+].[Mn+2],C.I. Pigment Red 63:2,2.5,eChemPortal
O=C(O)c1sc(C(=O)O)c2c1OCCO2,"2,3-Dihydrothieno[3,4-b]-1,4-dioxin-5,7-dicarboxylic acid",0.29,eChemPortal
Cc1ccc(OCCCS(=O)(=O)[O-])c([N+](=O)[O-])c1.[Na+],Sodium 3-(4-methyl-2-nitrophenoxy)propane-1-sulfonate,-2.57,eChemPortal
Nc1ccc(N(CCO)CCO)cc1.O=S(=O)(O)O,(p-Ammoniophenyl)bis(2-hydroxyethyl)ammonium sulphate,-2.8,eChemPortal
C=C1[C@H](CO)[C@@H](O)C[C@@H]1n1cnc2c(=O)[nH]c(N)nc21,Entecavir,-0.8,PubChem
C=CC(=C)CCCC(C)(C)O,2-Methyl-6-methylene-7-octen-2-ol,3.46,OFMPub
CN(C)CCCCCCN(C)C,"N,N,N',N'-Tetramethyl-1,6-hexanediamine",1.99,eChemPortal
Cc1nc2c(O)cccn2c(=O)c1CCCl.Cl,n/a,1.9,eChemPortal
Cc1ccc(Cl)cc1N=Nc1c(O)c(C(=O)Nc2cc(C)c(NC(=O)c3cc4ccccc4c(N=Nc4cc(Cl)ccc4C)c3O)cc2C)cc2ccccc12,n/a,0.53,eChemPortal
O=C(/C=C/c1ccc2c(c1)OCO2)N(c1ccccc1)c1ccccc1,"(2E)-3-(1,3-Benzodioxol-5-yl)-N,N-diphenylacrylamide",3.4,eChemPortal
O=c1n(CCO)c(=O)n(CCO)c(=O)n1CCO,Tris(2-hydroxyethyl) isocyanurate,-1.63,eChemPortal
C=C(CC)C(=O)c1ccc(OCC(=O)O)c(Cl)c1Cl,Ethacrynic acid,3.3,PubChem
CCON,"Hydroxylamine, O-ethyl-",-0.7,eChemPortal
OC(=NCCN1CCN2Cc3[nH]c4ccccc4c3CC2C1)c1ccccc1 (stereo not given),n/a,1.52,OCHEM
CC12CCCC(C)(CC1)C2=NO,"1,5-Dimethylbicyclo[3.2.1]octan-8-one oxime",2.94,eChemPortal
CCCC[P+](CCCC)(CCCC)CCCC.F.[F-],Tetrabutylphosphonium hydrogen difluoride,-1.2,eChemPortal
CC(C)CCCC(C)CCO (stereo not given),"3,7-Dimethyloctan-1-ol",3.99,eChemPortal